For one substance, cAMP assay EC50 and cAMP assay Relative activity results are on record in patent US20180271995A1, “A PROTEIN CONJUGATE COMPRISING MULTIPLE PHYSIOLOGICALLY ACTIVE POLYPEPTIDES AND AN IMMUNOGLOBULIN FC REGION” (HANMI PHARM. CO., LTD., priority 2015, published 2018).

The test deals with human GLP-1 receptor (human) (UniProt P43220). Put plainly: cell-based or functional assay.

In turn, “imidazo-acetyl exendin-4 (CA-exendin-4) (from UniProt P26349) (peptide)” showed a cAMP assay EC50 of 30 pM and a cAMP assay Relative activity of 100 % vs. Exd4.
